Laboratory results published in patent US7067262B2, “Cell line for the expression of an α2δ2 calcium channel subunit and methods of use” (Warner Lambert Company LLC, priority 2000, dated 2006).

By UniProt entry, the sequences of proteins in these tests, tags left out. Where a name states a change or a piece, a line headed by the entry shows the natural chain unless it says otherwise. Residues count along the entry.
UniProt A0A287BIN3, 25-1109: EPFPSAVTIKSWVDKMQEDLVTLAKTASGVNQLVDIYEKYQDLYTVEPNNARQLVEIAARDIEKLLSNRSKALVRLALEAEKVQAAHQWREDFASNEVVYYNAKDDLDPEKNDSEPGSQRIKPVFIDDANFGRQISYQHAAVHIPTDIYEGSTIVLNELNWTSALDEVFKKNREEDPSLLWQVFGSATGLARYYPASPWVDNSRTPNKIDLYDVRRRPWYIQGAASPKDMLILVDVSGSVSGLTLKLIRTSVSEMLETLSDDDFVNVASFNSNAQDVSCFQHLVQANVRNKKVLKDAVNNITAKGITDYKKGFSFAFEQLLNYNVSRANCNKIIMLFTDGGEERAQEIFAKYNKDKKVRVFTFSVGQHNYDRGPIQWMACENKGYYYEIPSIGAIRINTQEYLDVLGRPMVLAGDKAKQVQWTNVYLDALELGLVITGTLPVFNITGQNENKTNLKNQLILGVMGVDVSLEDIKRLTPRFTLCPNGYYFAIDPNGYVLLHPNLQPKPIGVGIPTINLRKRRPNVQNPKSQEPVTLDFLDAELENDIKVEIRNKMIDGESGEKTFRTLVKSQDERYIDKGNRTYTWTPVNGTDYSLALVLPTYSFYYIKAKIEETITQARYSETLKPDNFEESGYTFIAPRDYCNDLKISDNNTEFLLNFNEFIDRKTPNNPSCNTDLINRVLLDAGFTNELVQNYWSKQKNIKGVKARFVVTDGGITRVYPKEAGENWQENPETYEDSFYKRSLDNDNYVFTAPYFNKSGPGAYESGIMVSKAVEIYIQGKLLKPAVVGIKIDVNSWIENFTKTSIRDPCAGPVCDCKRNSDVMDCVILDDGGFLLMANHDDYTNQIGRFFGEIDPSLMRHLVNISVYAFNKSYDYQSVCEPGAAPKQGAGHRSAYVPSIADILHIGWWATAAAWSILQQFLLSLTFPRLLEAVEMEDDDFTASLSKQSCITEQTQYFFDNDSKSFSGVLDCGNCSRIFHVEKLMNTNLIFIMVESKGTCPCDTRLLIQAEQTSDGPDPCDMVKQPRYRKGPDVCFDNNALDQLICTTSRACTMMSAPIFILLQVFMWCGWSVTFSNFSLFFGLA

Biological target: T1, porcine α2δ1 (pα2δ1) calcium channel subunit (Sus scrofa, UniProt A0A287BIN3)
T1 construct: expressed in transfected cells
Test: [3H]gabapentin radioligand binding to membranes from HEK293 stable cell line GKS02
Procedure: Cell culture and transfection. […] The media were supplemented with 50 units/mL penicillin, 50 μg/mL streptomycin, and 10% heat-inactivated fetal bovine serum (FBS), in a humidified incubator with 95% air and 5% CO2 at 37° C. For transient transfection into COS-7 cells, 20 μg of plasmid DNA (vector or the same vector with α2δ insert) was incubated with 30 μL of lipofectamine. The mixture was overlaid onto the cells in 1.5 mL serum-free medium and incubated for 5 hours. Then FBS was added to the dishes to bring the final concentration to 10%. The medium was changed next morning. Forty-eight hours after the transfection, the cells were harvested for membrane preparation. For stable transfection of porcine α2δ1 and human α2δ2 into HEK 293 cells, the same procedure was applied as that for a transient transfection except for that 800 μg/mL G418 (gentacin) was added to the cells 48 hours after the transfection. […] In addition, hosts for expression of α2δ2 protein binding assays can also include eukaryotic expression systems such as yeast, insect cells, and mammalian cells (CHO, COS-7, HEK293, etc.).
Membrane preparation. Membranes were prepared from tissues or cultured cells. […]
Binding assays. […] The filters were dried and counted in a liquid scintillation counter. […]

With `NCC1(CC(=O)O)CCCCC1` [Gabapentin, 1-(aminomethyl)cyclohexane acetic acid] as the compound, how does the IC50 read?
The IC50 was 132 nM.
